The text below walks through data of patent US20230321108A1, “UNIT DOSAGE COMPOSITION OF AKT INHIBITOR” (NANJING CHIA TAI TIANQING PHARMACEUTICAL CO., LTD., priority 2020, published 2023).

By UniProt entry, the sequences of proteins in these tests, tags left out. Where a name states a change or a piece, a line headed by the entry shows the natural chain unless it says otherwise.
UniProt P31749: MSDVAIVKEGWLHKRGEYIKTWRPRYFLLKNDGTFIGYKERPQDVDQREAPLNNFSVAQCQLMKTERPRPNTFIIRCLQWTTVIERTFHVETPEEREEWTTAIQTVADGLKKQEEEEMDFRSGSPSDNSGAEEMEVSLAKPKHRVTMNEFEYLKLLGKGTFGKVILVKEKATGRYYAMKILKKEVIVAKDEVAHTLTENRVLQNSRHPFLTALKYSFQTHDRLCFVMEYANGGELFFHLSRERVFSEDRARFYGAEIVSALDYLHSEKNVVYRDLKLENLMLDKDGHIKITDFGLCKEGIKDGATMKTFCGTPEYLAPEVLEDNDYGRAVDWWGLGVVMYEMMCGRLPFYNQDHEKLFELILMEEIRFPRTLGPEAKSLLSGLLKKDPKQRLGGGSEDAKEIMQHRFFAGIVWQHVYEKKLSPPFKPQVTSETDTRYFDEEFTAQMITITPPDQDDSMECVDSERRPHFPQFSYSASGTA
UniProt P31751: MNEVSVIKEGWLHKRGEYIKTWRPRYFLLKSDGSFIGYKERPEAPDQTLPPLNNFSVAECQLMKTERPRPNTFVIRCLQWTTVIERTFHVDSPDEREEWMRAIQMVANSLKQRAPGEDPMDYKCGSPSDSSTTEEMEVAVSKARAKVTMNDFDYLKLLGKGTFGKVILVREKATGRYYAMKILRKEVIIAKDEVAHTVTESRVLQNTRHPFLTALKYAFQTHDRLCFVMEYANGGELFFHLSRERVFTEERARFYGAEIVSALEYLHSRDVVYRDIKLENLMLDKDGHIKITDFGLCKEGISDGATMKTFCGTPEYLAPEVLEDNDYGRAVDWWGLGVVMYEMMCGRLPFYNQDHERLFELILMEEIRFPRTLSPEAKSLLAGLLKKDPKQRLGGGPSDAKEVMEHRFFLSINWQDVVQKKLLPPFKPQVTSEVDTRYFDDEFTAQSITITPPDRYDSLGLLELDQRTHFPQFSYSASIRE

For one experiment, the target named is AKT1 (Homo sapiens (Human), UniProt P31749). The experiment can be described thus: AKT kinase activity assay (HTRF kinEASE TK), AKT1. In kind it is biochemical. The note with it: 2 µM ATP.
The next experiment concerns the target AKT2 (Homo sapiens (Human), UniProt P31751). The experiment can be described thus: AKT kinase activity assay (HTRF kinEASE TK), AKT2. It counts as biochemical. The note with it: AKT2 enzyme activity IC50, HTRF, 20 µM ATP. As for the experimental part: The substrate and ATP were respectively diluted with the 1× kinase reaction buffer to a concentration 5 times the reaction concentration.
A 5× enzyme working solution was prepared from the 1× kinase reaction buffer.
A 4× streptavidin-XL665 working solution was prepared from the assay buffer.
4× europium-labeled tyrosine kinase substrate antibody working solution The europium-labeled tyrosine kinase substrate antibody was 100-fold diluted with the assay reaction buffer to obtain a working solution.
After all the reagents were prepared according to the above method, except for the enzyme, the reagents were equilibrated to the room temperature and loaded.
b) 2 µL of previously prepared TK-biotin substrate solution (the concentration of the substrate for enzyme screening is shown in Table 1) was placed in each reaction well.
The plate was sealed with a sealing film, and the reaction solution was mixed until uniform and incubated at the room temperature for 10 min to allow the compound to fully react with and bind to the enzyme.
d) 2 µL of ATP solution was placed in each reaction well to initiate a kinase reaction (the concentration of ATP for enzyme screening and reaction time are shown in Table 1).
e) 5 min before the kinase reaction was completed, an assay solution was prepared. […]
For orientation: Time-resolved FRET reads energy transfer from a long-lived donor to a nearby acceptor.

[1] abbreviates: AKT1 enzyme activity IC50, HTRF.

Like-named read-outs stand apart in the source and are kept apart here.

As a reminder, the IC50 is the concentration that inhibits the measured activity by half. For `C[C@@H]1CC(=O)Nc2ncnc(N3CCN(C(=O)[C@H](CNC4CC4)c4ccc(Cl)cc4)[C@H]4C[C@H]43)c21` (single isomer, unassigned) [Isomer 1 of Example 1], the IC50 at AKT1 (HTRF, read-out: AKT1 enzyme activity IC50) worked out at 62 nM.

With `C[C@@H]1CC(=O)Nc2ncnc(N3CCN(C(=O)[C@H](CNC4CC4)c4ccc(Cl)cc4)[C@H]4C[C@H]43)c21` (single isomer, unassigned) [Isomer 1 of Example 2], the IC50 is 442 nM at AKT1 (setting [1]) and 1000 nM at AKT2.

`C[C@@H]1CC(=O)Nc2ncnc(N3CCN(C(=O)[C@H](CNC4CC4)c4ccc(Cl)cc4)[C@@H]4C[C@@H]43)c21` [Isomer 2 of Example 2, (R)-4-((1S,6R)-5-((S)-2-(4-chlorophenyl)-3(cyclopropylamino)propionyl)-2,5-diazabicyclo[4.1.0]heptan-2-yl)-5-methyl-5,8-dihydropyrido[2,3-d]pyrimidin-7(6H)-one] yielded an IC50 on AKT1 (setting [1]) of 0.65 nM.
